Source: PMC4871480, “A Miniaturized Screen of a Schistosoma mansoni Serotonergic G Protein-Coupled Receptor Identifies Novel Classes of Parasite-Selective Inhibitors” (PLoS Pathogens, 2016)

By UniProt entry, the sequences of proteins in these tests, tags left out. Residues count along the entry.
UniProt P34969, 1-445 isoform P34969-2: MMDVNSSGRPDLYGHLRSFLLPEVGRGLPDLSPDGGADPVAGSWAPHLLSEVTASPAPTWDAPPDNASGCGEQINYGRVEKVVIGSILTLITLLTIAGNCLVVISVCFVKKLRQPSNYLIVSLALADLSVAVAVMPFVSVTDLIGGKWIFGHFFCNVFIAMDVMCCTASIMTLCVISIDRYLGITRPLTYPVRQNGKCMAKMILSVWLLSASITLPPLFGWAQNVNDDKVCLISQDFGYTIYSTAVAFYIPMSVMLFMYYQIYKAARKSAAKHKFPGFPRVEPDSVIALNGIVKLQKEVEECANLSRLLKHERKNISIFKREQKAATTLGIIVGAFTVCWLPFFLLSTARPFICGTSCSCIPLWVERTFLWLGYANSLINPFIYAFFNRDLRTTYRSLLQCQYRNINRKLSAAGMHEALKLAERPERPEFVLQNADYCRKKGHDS

Biological target: T1, Hs.5HT7R (Homo sapiens, UniProt P34969)
T1 construct: host or cells: HEK293 (ATCC CRL-1573.3), transient transfection, pCS2(-) vector
Experiment: GloSensor cAMP assay in HEK293 cells expressing Hs.5HT7R
Format: cell-based
Details: Fig 4
Protocol: HEK293 cells (ATCC CRL-1573.3) were cultured in DMEM supplemented with 10% fetal bovine serum (FBS), penicillin (100 units/ml), streptomycin (100 μg/ml), and L-glutamine (290 μg/ml). Cells were transiently transfected (ViaFect, Promega) as per the manufacturer’s protocol at a density of 2x10^6 cells per T-25 cell-culture flask. Cells were transfected with plasmids encoding GloSensor (Promega) and either Sm.5HTR (Smp_126730, GenBank accession number KF444051.1) or Sm.5HTRL (KX150867), bothGPCRs being codon optimized for mammalian expression, or Hs.5HT7a (GenBank accession number NM_000872.4, R&D Systems) subcloned into pCS2(-). Cell culture reagents were from Invitrogen. Epitope tagged constructs were used to verify expression, and untagged constructs used for all luminescence assays.
For assays performed on adherent cells, HEK-293 cells were transferred one day post transfection to 96 well, solid white plates (Corning, cat # 3917) coated with 0.01% poly-L-lysine (Sigma Aldrich) at a density of 5 x 10^4 cells / well in DMEM supplemented with 1% dialyzed FBS (Gibco). […] Plates were allowed to equilibrate at room temperature for two hours prior to performing luminescence assays (GloMax-Multi Detection System plate reader, Promega). […]

With `CC1CCN(CC[C@H]2CCCN2S(=O)(=O)c2cccc(O)c2)CC1` [SB269970] the “inhibition of Hs.5HT7R” value was “potent inhibitors”.
